Earlier results, collected in patent US20260151486A1, “PRESSURIZED NANOEMULSION” (BIOFRONTERA BIOSCIENCE GMBH, priority 2023, published 2026).

Conditions: cited from earlier work

For betamethasone propionate [BMP], the “octanol-water partition coefficient (log P)” value is given as 1.14.
